Experimental data published in PubChem BioAssay AID720519 (National Center for Advancing Translational Sciences (NCATS), 2013).
The entries are a selection whose mix differs from that of the whole data set. Results filed as inconclusive are left out. The source made the active and inactive calls. Calls follow the shape of the dose curve; as a rule, active = well fitted activation curve with a large enough effect; inconclusive = small, poorly fitted or top-dose-only effect; inactive = flat fitted curve, though single readings scatter.

Assay: qHTS for Inhibitors of Cell Surface uPA Generation: Confirmatory Assay for Cherry-picked Compounds; also: 0% is about no effect
Conditions: cell surface uPA activity generation, qHTS confirmation; at 115 µM (top of the series)
Excerpt: The overall objective of this project is to perform a quantitative high throughput screen (qHTS) to identify novel compounds that inhibit the generation of cell surface urokinase activity. The urokinase plasminogen activator (uPA) is one of the two primary endogenous systems that mediate plasminogen activation into plasmin. Members of this system, including uPA and its receptor (uPAR), are overexpressed in several malignant tumors. This system plays a major role in adhesion, migration, invasion and metastasis of cancer cells. Small molecule inhibitors of the uPA system will serve as probes to understand the molecular mechanisms of the uPA cascade and better understanding the micro-environmental circumstances that facilitate the activation of plasminogen by uPA, and finally may provide novel candidate agents for anticancer drug therapy.
[…] Activation of cell viability (increase in luminescence signal) due to inhibition of the cell surface uPA generation is the desired outcome of this assay. […]
Cultured RAW 264.7 were dispensed into 1536-well clear bottom, white walled tissue culture plates at a density of 4000 cells/well and were incubated overnight (12-16 h) at 37 C in a 5% CO2 incubator. […] Three microliter of PerkinElmer ATPlite was then added to each well and luminescence was detected using the PerkinElmer ViewLux plate reader for a 5 sec exposure.

Compound: O=C(O)CNc1ccc([As](=O)(O)O)cc1
- inhibition: inactive: 0.952%
